Values quoted from earlier work, collected in US9669049B2, “Compositions comprising gamma retrovirus vectors and methods of treating proliferative disorders” (Tocagen Inc., priority 2010, dated 2017).
Where two headings read alike, the source gives them in different places.

Details: on the basis of reversible thrombocytopenia, cited from earlier work

N#CC[C@H](C1CCCC1)n1cc(-c2ncnc3[nH]ccc23)cn1 [Ruxolitinib]
maximum tolerated doses (once daily): or 100 mg once
maximum tolerated doses (twice daily): 25 mg twice daily
